From PMC9182007, “Statistical Methods in the Study of Protein Binding and Its Relationship to Drug Bioavailability in Breast Milk” (Molecules, 2022)

By UniProt entry, the sequences of proteins in these tests, tags left out. Residues count along the entry.
UniProt P02769, 25-607: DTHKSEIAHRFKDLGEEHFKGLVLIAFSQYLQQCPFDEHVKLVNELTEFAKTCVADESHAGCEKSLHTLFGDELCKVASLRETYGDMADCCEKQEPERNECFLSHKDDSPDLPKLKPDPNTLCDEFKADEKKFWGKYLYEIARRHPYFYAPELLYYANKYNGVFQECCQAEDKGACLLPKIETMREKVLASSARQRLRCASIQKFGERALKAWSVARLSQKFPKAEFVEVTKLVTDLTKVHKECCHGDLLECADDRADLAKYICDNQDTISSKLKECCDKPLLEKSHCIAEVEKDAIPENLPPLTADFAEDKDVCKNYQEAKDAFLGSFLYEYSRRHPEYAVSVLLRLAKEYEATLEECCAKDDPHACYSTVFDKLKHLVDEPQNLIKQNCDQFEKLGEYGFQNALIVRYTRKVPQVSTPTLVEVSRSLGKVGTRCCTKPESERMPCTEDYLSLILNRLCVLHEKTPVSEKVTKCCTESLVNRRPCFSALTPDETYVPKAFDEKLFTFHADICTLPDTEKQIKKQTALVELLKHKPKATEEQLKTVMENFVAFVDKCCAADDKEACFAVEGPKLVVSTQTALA
UniProt P02768, 25-609: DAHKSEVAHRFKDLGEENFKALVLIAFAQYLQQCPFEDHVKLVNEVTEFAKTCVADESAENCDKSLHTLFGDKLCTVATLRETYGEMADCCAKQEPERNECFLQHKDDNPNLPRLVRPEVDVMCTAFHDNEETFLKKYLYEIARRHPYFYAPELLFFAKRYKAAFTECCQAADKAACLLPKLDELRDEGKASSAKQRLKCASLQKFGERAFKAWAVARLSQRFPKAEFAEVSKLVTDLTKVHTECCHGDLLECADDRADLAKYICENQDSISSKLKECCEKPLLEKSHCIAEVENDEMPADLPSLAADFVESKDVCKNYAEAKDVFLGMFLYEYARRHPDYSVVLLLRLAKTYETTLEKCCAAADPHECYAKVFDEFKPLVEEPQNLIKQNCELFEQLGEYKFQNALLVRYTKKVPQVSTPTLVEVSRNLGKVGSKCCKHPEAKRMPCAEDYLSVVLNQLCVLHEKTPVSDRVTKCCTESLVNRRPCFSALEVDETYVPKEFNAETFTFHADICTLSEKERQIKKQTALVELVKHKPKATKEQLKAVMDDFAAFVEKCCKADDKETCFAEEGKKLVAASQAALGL

Columns and labels:
[1] = Milk-to-plasma (M/P) drug concentration ratio obtained in vivo, from literature; settings: Table S1, scale of drug penetration into milk 1-4
[2] = cited from earlier work
[3] = Table S1; source not stated; cited from earlier work
[4] = target: T1, bovine serum albumin (BSA) (Bos taurus, UniProt P02769); test: RP TLC on plates impregnated with bovine serum albumin; assay type: binding; settings: for RP (Rf value from the RP plate impregnated with 2 mg/mL BSA solution): Table S8, external group; for RP (Rf, BSA-impregnated RP plate): Table S4, RP plate impregnated with 2 mg/mL BSA, pH 7.4 mobile phase
T1 construct: purchased Sigma Aldrich

[5] = target: T1, bovine serum albumin (BSA); test: NP TLC on plates impregnated with bovine serum albumin; assay type: binding; settings: for NP (Rf, BSA-impregnated NP plate): Table S3, NP plate impregnated with 2 mg/mL BSA, pH 7.4 mobile phase
[6] = target: human serum albumin (HSA) (Homo sapiens, UniProt P02768); settings: pH 7.4
[7] = Table S1, coded 1/0; ref DrugBank [7]; cited from earlier work
[8] = NP TLC on non-impregnated control plates; assay type: physicochemical; settings: Table S3, non-impregnated NP plate; acetonitrile/acetate buffer pH 7.4/methanol 60:20:20
[9] = RP TLC on non-impregnated control plates; assay type: physicochemical; settings: Table S4, non-impregnated RP plate; acetonitrile/acetate buffer pH 7.4/methanol 60:20:20
[10] = tested on: plasma protein; settings: Table S1, plasma protein binding given as fraction; ref DrugBank [7]; cited from earlier work
[11] = Table S1, milk/plasma drug concentration ratio, in vivo
[12] = Table S6, external group (n = 38)

## Cc1nnc2n1-c1ccc(Cl)cc1C(c1ccccc1)=NC2 [alprazolam]
[1]
  M/P code: 1 (Code 1 corresponds to drugs with an M/P value <0.40—completely safe)
[2]; [11]
  M/P: 0.18
[3]
  BB vivo: 0.019

## CCC[C@@H]1C[C@@H](C(=O)N[C@@H]([C@H]2O[C@H](SC)[C@H](O)[C@@H](O)[C@H]2O)[C@H](C)Cl)N(C)C1 [clindamycin]
[1]
  M/P code: 1 (Code 1 corresponds to drugs with an M/P value <0.40—completely safe)
[2]; [11]
  M/P: 0.3

## CNCC[C@H](Oc1cccc2ccccc12)c1cccs1 [duloxetine]
[4]
  RP (Rf value from the RP plate impregnated with 2 mg/mL BSA solution): 0.53
[2]; [12]
  M/P: 0.78
[5]; Table S8, external group
  NP (Rf value from the NP plate impregnated with 2 mg/mL BSA solution): 0.33

## CN(C)CCC[C@@]1(c2ccc(F)cc2)OCc2cc(C#N)ccc21 [escitalopram]
[6]
  k HSA: 2.84

## NC(N)=Nc1nc(CSCCC(N)=NS(N)(=O)=O)cs1 [famotidine]
[1]
  M/P code: 4 (4 is M/P >1.20—dangerous)
[2]; [11]
  M/P: 1.5
[7]
  CNS+/-: 1

## CNCCC(Oc1ccc(C(F)(F)F)cc1)c1ccccc1 (stereo not shown) [fluoxetine]
[2]; [11]
  M/P: 0.68
[6]
  k HSA: 6.06

## CC(C)Cc1ccc(C(C)C(=O)O)cc1 (stereo not shown) [ibuprofen]
[3]
  BB vivo: -0.180

## O=C1Nc2ccc(Cl)cc2C(c2ccccc2Cl)=NC1O (stereo not shown) [lorazepam]
[1]
  M/P code: 1 (Code 1 corresponds to drugs with an M/P value <0.40—completely safe)
[2]; [11]
  M/P: 0.205
[6]
  log k HSA: 0.34
[7]
  CNS+/-: 1

## Nc1cc(N2CCCCC2)nc(N)[n+]1[O-] [minoxidil]
[2]; [12]
  M/P: 0.82

## CC(C)(O)c1ccccc1CC[C@@H](SCC1(CC(=O)O)CC1)c1cccc(/C=C/c2ccc3ccc(Cl)cc3n2)c1 [montelukast]
[6]
  k HSA: 0.19

## Cc1cc2c(s1)Nc1ccccc1N=C2N1CCN(C)CC1 [olanzapine]
[4]
  RP (Rf, BSA-impregnated RP plate): 0.50
[8]
  CNP (Rf, control NP plate): 0.28
[9]
  CRP (Rf, control RP plate): 0.53
[2]; [11]
  M/P: 0.38
[10]
  PB: 0.175
[5]
  NP (Rf, BSA-impregnated NP plate): 0.29

## Cc1nc2n(c(=O)c1CCN1CCC(c3noc4cc(F)ccc34)CC1)CCCC2 [risperidone]
[4]
  RP (Rf, BSA-impregnated RP plate): 0.58
[8]
  CNP (Rf, control NP plate): 0.29
[9]
  CRP (Rf, control RP plate): 0.62
[2]; [11]
  M/P: 0.26
[3]
  BB vivo: -0.020
[5]
  NP (Rf, BSA-impregnated NP plate): 0.29

## CCN1CCCC1CNC(=O)c1cc(S(N)(=O)=O)ccc1OC (stereo not shown) [sulpiride]
[6]
  k HSA: 1.45

## COc1cccc(C2(O)CCCCC2CN(C)C)c1 (stereo not shown) [tramadol]
[4]
  RP (Rf value from the RP plate impregnated with 2 mg/mL BSA solution): 0.64

## Cc1ccc(-c2nc3ccc(C)cn3c2CC(=O)N(C)C)cc1 [zolpidem]
[4]
  RP (Rf, BSA-impregnated RP plate): 0.77
[1]
  M/P code: 1 (Code 1 corresponds to drugs with an M/P value <0.40—completely safe)
[2]; [11]
  M/P: 0.15
[6]
  log k HSA: 0.25
[5]
  NP (Rf, BSA-impregnated NP plate): 0.88

Where two headings read alike, the source gives them in different places.
